# Literature values as cited in patent US20230414560A1, “COMPOSITIONS AND METHODS FOR TREATING ECZEMA” (General Nutraceutical Technology LLC, priority 2022, published 2023).
# Details: TCMSP database, Table 1; cited from earlier work
substance,measurement,value
indirubin,O.B. (oral bioavailability),48.59
